# Experiments:
# By UniProt entry, the sequences of proteins in these tests, tags left out. Where a name states a change or a piece, a line headed by the entry shows the natural chain unless it says otherwise.
# UniProt P33534: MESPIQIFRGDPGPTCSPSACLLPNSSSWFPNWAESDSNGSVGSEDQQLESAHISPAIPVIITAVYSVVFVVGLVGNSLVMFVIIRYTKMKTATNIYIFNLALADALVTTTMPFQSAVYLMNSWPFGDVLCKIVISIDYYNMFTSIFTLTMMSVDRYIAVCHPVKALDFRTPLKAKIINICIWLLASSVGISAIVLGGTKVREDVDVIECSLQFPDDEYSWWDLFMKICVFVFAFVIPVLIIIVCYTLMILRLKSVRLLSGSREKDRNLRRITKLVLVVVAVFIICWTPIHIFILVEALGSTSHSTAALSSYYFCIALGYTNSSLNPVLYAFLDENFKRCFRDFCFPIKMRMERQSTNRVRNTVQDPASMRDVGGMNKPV
# mouse KOR [1] = molecular target: T1, mouse KOR (Mus musculus, UniProt P33534); format: cell-based; set-up: expressed in transfected cells; host or cells: HEK293, transient co-transfection; details: 10 µM, positive control used as reference value
# mouse KOR [2] = molecular target: T1, mouse KOR; details: read-out: Affinity Ki ± SD; cited from earlier work
# mouse KOR [3] = molecular target: T1, mouse KOR; set-up: method as in Muratspahić et al., 2021; details: ref Muratspahić et al., 2021, cited from earlier work
substance,measurement,setting,value
"Dyn A 1–13 amide trifluoroacetate salt (YGGFLRRIRPKLK; Dynorphin A(1-13) C-terminal amide, trifluoroacetate salt; UniProt P01213 207-219, looked up, fragment)",extent of β-arrestin-2 recruitment,mouse KOR [1],100%
same,Ki,mouse KOR [2],0.031 ± 0.003 nM
same,EC50,"mouse KOR [3]; cAMP inhibition at KOR, read-out: Potency cAMP EC50 ± SD",2.8 ± 0.7 nM
same,Efficacy cAMP Emax ± SD,mouse KOR [3]; reference set to 100%,100.0 ± 0.0%
